Experimental data reported in PubChem BioAssay AID1789 (The Scripps Research Institute Molecular Screening Center, 2009).
“And” between values parts separate entries of the source, which are not always exact repeats. Identical values can stand only once. The list shows a part of the results, in another mix than the full data. The source made the active and inactive calls.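 How the source made its calls: active means inhibition above the screen-wide mean plus 3 SD, computed separately per campaign (cut at about 16% in these data); inactive means the rest.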

test system: Heat shock protein HSP 90 (rabbit reticulocyte lysate; luciferase refolding); assay: HSP90 inhibitors, primary screen, cell lysate, luminescence (AID 1789); conditions: 3 h, at 5.6 µM, stronger effect = higher value;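 further: 0% = DMSO wells and 100% = 60 µM geldanamycin wells; inhibitors lower the luminescence because luciferase stays unfolded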

SMILES	inhibition
O=C(O)c1ccccc1[As](=O)(O)O	active: 75.2%
CC(=O)Nc1ccc([As](=O)(O)O)cc1	inactive: 0.41%
O=P(Nc1nc2ccc(Cl)cc2s1)(c1ccccc1)c1ccccc1	inactive: 1.38%
Cc1ccc(NP(=O)(Oc2ccccc2F)Oc2ccccc2F)nc1	inactive: 0.27%
CCOP(=O)(Nc1ccccc1)OCC	inactive: -4.2% and inactive: -2.08%
Cc1cc(SC(NC(=O)c2ccc(F)cc2)C(Cl)(Cl)Cl)ncn1 (configuration not stated)	inactive: -2.73%
O=[N+]([O-])c1cc([N+](=O)[O-])c(CCN2CCOCC2)c([N+](=O)[O-])c1	inactive: -1.22%
CCN(N=Nc1nonc1N)c1nonc1N	inactive: -4.28%
Nc1cccc2ccc([As](=O)(O)O)cc12	inactive: 5.15%
NC(=O)c1cc([N+](=O)[O-])cc([N+](=O)[O-])c1N	inactive: -0.7%
Cc1ccc(N/C(=N/P(=O)(N2CCOCC2)N2CCOCC2)N2CCOCC2)cc1	inactive: 0.52%
Cc1ccc(OP(=O)(Nc2nccs2)Oc2ccc(C)cc2)cc1	inactive: 2.47%
COc1ccccc1OP(=O)(Nc1ccc(C)cn1)Oc1ccccc1OC	inactive: 2.16%
Clc1ccc(Cl)c(NC2=NCC(CBr)S2)c1 (configuration not stated)	inactive: -1.66%
CN1CCCC(OC(=O)C(c2ccccc2)c2ccccc2)C1 (configuration not stated)	inactive: -2.72%
CC(C)CC(=O)NC(Sc1ccc(Cl)cc1)C(Cl)(Cl)Cl (configuration not stated)	inactive: 0.74%
Nc1cc(N)c2nonc2c1[N+](=O)[O-]	inactive: -7%
Cc1c2non([O-])c-2c(C)[n+](=O)[n+]1[O-]	inactive: 6.02%
O=C(NC(Sc1ccncn1)C(Cl)(Cl)Cl)c1ccccc1 (configuration not stated)	inactive: 1.33%
Oc1ccccc1CNc1ccccn1	inactive: 3.52%
COc1ccc(C2=NCC(CBr)S2)cc1 (configuration not stated)	inactive: -3%
CC(=O)N1C2C3N(C(C)=O)C1C1N(C(C)=O)C(C(N1C(C)=O)N3C(C)=O)N2C(C)=O	inactive: -1%
O=[N+]([O-])c1cccc2n[nH]nc12	inactive: -1.29%
O=[N+]([O-])c1cc([N+](=O)[O-])c(CCNc2ccccc2)c([N+](=O)[O-])c1	inactive: 6.65%
CCc1nc2c(n1)c1c(non1O)c1c2no[n+]1[O-]	inactive: 2.63%
Cc1ccc(NP(=O)(Oc2ccccc2)Oc2ccccc2)nc1	inactive: 2.54%

SMILES	inhibition
C[N+]1=C2C=CC=CC=C2SC12C([N+](=O)[O-])=CC([N+](=O)[O-])=C[C-]2[N+](=O)[O-] (configuration not stated)	inactive: 9.62%
Nc1ccc([As](=O)(O)c2ccc(N)cc2)cc1	inactive: 5.56%
CCN(/C(=N/P(=O)(N1CCOCC1)N1CCOCC1)N1CCOCC1)c1ccc(OC)cc1	inactive: 4.02%
CN(C)C(=O)OCCc1n(C)cc[n+]1C	inactive: -1.08%
CC(C)=N/N=C(\N)N[N+](=O)[O-]	inactive: -0.76%
CC1CCN(C(=O)Oc2c(Cl)cc(Cl)c3cccnc23)CC1	inactive: 3.19%
O=C(Nc1cc([As](=O)(O)O)ccc1O)c1ccccc1	inactive: -0.73%
CC(C)(C)C(=O)NC(Sc1ccncn1)C(Cl)(Cl)Cl (configuration not stated)	inactive: 3.09%
O=[N+]([O-])c1ncn(CCn2ncnc2[N+](=O)[O-])n1	inactive: -3.98%
O=[N+]([O-])c1cccc(NC2=NCC(CBr)S2)c1 (configuration not stated)	inactive: 3.97%
O=C(O)CNc1ccc([As](=O)(O)O)cc1	inactive: -2.5%
CN(C)C1(CNC(=O)c2ccc(Cl)c(S(N)(=O)=O)c2)CCCCC1	inactive: 1.7%
O=P(Nc1ccccn1)(c1ccc(Br)cc1)c1ccc(Br)cc1	inactive: 4.73%
O=P(Nc1nc2ccccc2s1)(c1ccccc1)c1ccccc1	inactive: 1.85%
O=[N+]([O-])c1ncn(CCn2cnc([N+](=O)[O-])n2)n1	inactive: -2.8%
CC(=O)NC(SC(=S)N(C)C)C(Cl)(Cl)Cl (configuration not stated)	inactive: 0.27%
O=[N+]([O-])c1ccc(O)c(/C=N/Nc2ccc([N+](=O)[O-])cc2[N+](=O)[O-])c1	inactive: -5.95%
O=[As](O)(c1ccccc1)c1ccc(O)cc1	inactive: 4.26%
Nc1ccc([As](=O)(O)c2ccc([N+](=O)[O-])cc2)cc1	inactive: -2.31%
C(Cc1nn[nH]n1)Cc1nn[nH]n1	inactive: -3.51%
O=C(OC1CN2CCC1CC2)c1cccc(Cl)c1 (configuration not stated)	inactive: 4.53%
O=P(Nc1nccs1)(c1ccccc1)c1ccccc1	inactive: 10.1%
CC(C)C(=O)NC(Sc1ccccc1)C(Cl)(Cl)Cl (configuration not stated)	inactive: -5.49%
c1nnnn1CCn1cnnn1	inactive: -3.54%
CCOc1ccc(C2=NCC(CBr)S2)cc1 (configuration not stated)	inactive: 3.44%
O=P1(Nc2nc3ccc(Cl)cc3s2)COc2ccccc2O1 (configuration not stated)	inactive: 1.48%

SMILES	inhibition
CC(C)(C)C(=O)NC(Sc1ccccc1)C(Cl)(Cl)Cl (configuration not stated)	inactive: -3.94%
CC(=O)c1ccc(N2CC2c2ccncc2)cc1 (configuration not stated)	inactive: 0.45%
CC(=O)Nc1ccc(Oc2c([N+](=O)[O-])cc([N+](=O)[O-])cc2[N+](=O)[O-])cc1	inactive: 0.9%
CC(=O)Nc1ccc([As](=O)(O)O)c(O)c1	inactive: 0.31%
O=C(NC1CCS(=O)(=O)C1)NP(=S)(Oc1ccccc1)Oc1ccccc1 (configuration not stated)	inactive: 0.26%
CCNC(=S)/N=C(\N)N[N+](=O)[O-]	inactive: -1.83%
CCOC(=O)NC(Sc1ccccc1)C(Cl)(Cl)Cl (configuration not stated)	inactive: -3%
Cc1ccc(NP(=O)(Oc2cccc(C)c2)Oc2cccc(C)c2)nc1	inactive: 1.12%
c1ccc(-c2nn[nH]n2)c(-c2nn[nH]n2)c1	inactive: 4.66%
Cc1ccc(OP(=O)(Nc2ccccn2)Oc2ccc(C)cc2)cc1	inactive: -0.47%
CC(=O)NC(SC(=S)N(CC(C)C)CC(C)C)C(Cl)(Cl)Cl (configuration not stated)	active: 19.9%
COC(=O)c1cc2c(s1)N=C(c1ccccc1)N(C)P2(=O)N1CCOCC1 (configuration not stated)	inactive: -1.82%
CCC(=O)N1C2C3N(C(=O)CC)C1C1N(C(=O)CC)C(C(N1C(=O)CC)N3C(=O)CC)N2C(=O)CC	inactive: 1.42%
O=C(OC1CN2CCC1CC2)c1ccccc1 (configuration not stated)	inactive: 3.72%
CN(C)C(=O)Oc1noc2ccccc12	inactive: -3.54%
O=c1c2cc([N+](=O)[O-])ccc2[nH]c2c([N+](=O)[O-])cc([N+](=O)[O-])cc12	inactive: 0.96%
Cc1ccccc1OP(=O)(Nc1ccccn1)Oc1ccccc1C	inactive: 3.07%
CS(=O)(=O)c1cc([N+](=O)[O-])c2no[n+]([O-])c2c1	inactive: -0.04%
O=P(Nc1nccs1)(c1ccccc1)c1nc2ccccc2s1 (configuration not stated)	active: 26.9%
O=P(Nc1nccs1)(Oc1ccccc1)Oc1ccccc1	inactive: 4.16%
CCOP1(=S)c2c(C)nn(CCC#N)c2N=C(c2ccccc2F)N1C (configuration not stated)	inactive: -1.74%
O=C(O)COc1ccc([As](=O)(O)O)cc1[N+](=O)[O-]	inactive: 2.82%
Nc1ccccc1[As](=O)(O)c1ccccc1	inactive: 3.1%
O=[N+]([O-])c1ccc2c(c1)nnn2O	inactive: -0.14%
CCOP1(=S)c2c(C)nn(CCC#N)c2N=C(c2ccc(F)cc2)N1C (configuration not stated)	inactive: 4.18%
CS(=O)(=O)c1ccc(Cl)c(NC(=O)COC(=O)C(O)(c2ccccc2)c2ccccc2)c1	inactive: -3.44%

SMILES	inhibition
COc1cc(C(=O)NCC2(N3CCOCC3)CCCCC2)cc(Cl)c1OC(C)C	inactive: -4.75%
O=[As](O)(O)c1cccnc1	inactive: 2.74%
O=C(OC1CN2CCC1CC2)c1ccc(Cl)cc1 (configuration not stated)	inactive: 0.66%
O=[As](O)(c1cccc(O)c1)c1cccc(O)c1	inactive: -0.47%
Cc1cccc(OCC(=O)OC2CN3CCC2CC3)c1 (configuration not stated)	inactive: -0.14%
CCCOP(=S)(Nc1nc(N)cc(=O)[nH]1)OCCC	inactive: -2.6%
Nc1cccc2c([As](=O)(O)O)cccc12	active: 44.3%
Cc1ccc(NCCc2c([N+](=O)[O-])cc([N+](=O)[O-])cc2[N+](=O)[O-])cc1	inactive: 3.92%
CCOP(=O)(Nc1cccc2ccccc12)OCC	inactive: 3.94%
COc1cc(C2NCCC3(OCCO3)C2(C)C)cc(OC)c1OC (configuration not stated)	inactive: 4.47%
CCOP(=O)(Nc1ccc(C)cn1)OCC	inactive: -0.27%
CCOP(=O)(NC(=NC(C)c1ccccc1)NC(C)c1ccccc1)OCC (configuration not stated)	inactive: 5.41%
CCC1=CC2Cc3nc4ccc(Cl)cc4c(N)c3C(C1)C2 (configuration not stated)	inactive: 0.74%
O=P1(Nc2ccccn2)COc2ccccc2OC1	inactive: 4.28%
CC(C)(C)C(=O)NC(Sc1ncccn1)C(Cl)(Cl)Cl (configuration not stated)	inactive: 15.2%
Clc1n[nH]nc1-c1nn[nH][15n]1	inactive: 5.6%
CC1(CBr)Cn2c(nc3ccccc3c2=O)S1 (configuration not stated)	inactive: 1.38%
O=[As](O)(c1ccccc1Br)c1ccccc1Br	inactive: 1.56%
CN(C(=O)Cc1ccc(Cl)c(Cl)c1)[C@@H]1CCCC[C@H]1N1CCCC1	inactive: -3.37%
CC(C)/C=N\N=C(\N)N[N+](=O)[O-]	inactive: -3.19%
Cc1ccc(C(=O)OC2CN3CCC2CC3)cc1 (configuration not stated)	inactive: -0.54%
CC1CCC(C(C)C)C(OP(=O)(Nc2ccccn2)c2ccccc2)C1 (configuration not stated)	inactive: 6.4%
Cc1nn(-c2ccccc2)c2c1P(=O)(N1CCOCC1)N(C)C(c1ccccc1)=N2 (configuration not stated)	inactive: 0.54%
O=C(/C=C/c1ccccc1)OC1CN2CCC1CC2 (configuration not stated)	inactive: 3.56%
